Experimental data reported in patent US12178827B2, “Nicotinyl riboside compounds and their uses” (MitoPower LLC, priority 2018, dated 2024).

Legend:
[1] = test system: Jurkat cells; assay: NAD+ level after MNNG-induced NAD+ depletion (NAD/NADH Glo assay), Jurkat cells; type: cell-based; conditions: no test compound
[2] = test system: Jurkat cells; assay: MNNG-induced cytotoxicity / cytoprotection (CellTiter-Blue Cell Viability Assay), Jurkat cells; conditions: no test compound

## CN(N=O)C(=N)N[N+](=O)[O-]
[1]; 75 μM MNNG for 30 min
  depletion of NAD+ level at 4 hr: 92.1%
[1]; 100 μM MNNG for 30 min
  depletion of NAD+ level at 4 hr: 76.9% and 94%
[2]; 75 μM MNNG for 30 min
  cytotoxicity at 4 hr: 87%
[2]; 150 μM MNNG for 30 min
  cytotoxicity at 4 hr: 63.2%
[2]; 200 μM MNNG for 30 min
  cytotoxicity at 4 hr: 78%

Values joined by “and” are separate entries in the source; they are usually repeats but may differ in a detail not shown here. Equal values may be shown once.
